pEC50, pIC50: −log10 of the molar value.
How the values were obtained:
[1] = biological target: F1F0-ATPase (Bos taurus, UniProt P13621); experiment: Inhibition of F1F0-ATPase activity in synthesizing ATP; conditions: read-out: ATP Syn IC50; inhibition of ATP synthesis; detection limit IC50=16 μM
Method: (§1) Exemplary compounds described in above Examples were tested for activity against F1F0-ATPase by measuring the ability of the compounds to inhibit ATP synthesis. In addition, the compounds were assessed for cytotoxicity in Ramos cells. Inhibition of F1F0-ATPase activity in synthesizing ATP and cytotoxicity in Ramos cells were measured according to the procedures described in K. M. Johnson et al. Chemistry & Biology 2005, 12, 485-496. […] In the column titled ATP Syn IC50 in Table 4, the symbol “+” refers to an IC50>16 μm, “++” refers to an IC50 from 5 to 16 μm, and “+++” refers to an IC50 less than 5 μm. In the column titled Ramos Cell EC50 in Table 4, the symbol “+” refers to an EC50>16 μm, “++” refers to an EC50 from 5 to 16 μm, and “+++” refers to an EC50 less than 5 μm. The detection limit of the assay measuring inhibition of F1F0-ATPase activity was IC50=16 μM. The detection limit of the assay measuring cytotoxicity in Ramos cells was EC50=16 μM.

[2] = tested on: Ramos cells; experiment: Cytotoxicity in Ramos cells; conditions: read-out: Ramos Cell EC50, detection limit EC50=16 μM
Method: as §1

pIC50 [1]: < 4.80
SMILES: CC(C)(O)CNC(=NC(=O)c1ccc(F)c(F)c1)Nc1n[nH]c2cc(C(F)(F)F)ccc12
pEC50 [2]: < 4.80
